Assay results as given in patent publication US20040018971A1.

How the values were obtained:
Conditions in all cases: remark: other sources report otherwise
[1] = biological target: HLA-A*0202 (human); experiment: competition with 125I probe peptide for purified HLA
[2] = biological target: HLA-A*0201 (human); experiment: as above
[3] = biological target: HLA-A*0301 (human); experiment: inhibition of 125I probe peptide binding to purified HLA
[4] = biological target: HLA-A*3301 (human); experiment: as above
[5] = biological target: HLA-B*5101 (human); experiment: competition vs 125I-labelled probe peptide, purified HLA, gel filtration
[6] = biological target: HLA-A*0202 (human); experiment: competition for purified HLA vs 125I-labelled probe peptide, gel filtration
[7] = biological target: HLA-A*0201 (human); experiment: as above

In the case of HLYQGCQVV [Her2/neu.48 …], the IC50 [1] is reported as 307 nM.

For CLTSTVQLV [Her2/neu.789 …], the IC50 [2] was 208 nM.

In the case of VVFGILIKRR [Her2/neu.669 (AA 10)], the IC50 [3] is reported as 3670 nM and the IC50 [4] is reported as 193 nM.

For PPSPREGPLPI [Her2/neu.1149.I11], the IC50 [5] was 423 nM.

Binder HLYQGCQVV [Her2/neu.48] has an IC50 [6] of 307 nM.

Binder CLTSTVQLV [Her2/neu.789] has an IC50 [7] of 208 nM.
